Cneo AK release: Cryptococcus neoformans lysis via adenylate kinase release | C. neoformans lysis, adenylate kinase release luminescence, 4 h; normalised: neutral wells 0, clomiphene wells 100 | lysis activity, % at 15 µM | 0.2% of 360,000 active;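 active means mean lysis activity across replicates of at least 80%, whatever share of replicates individually reach that level; inactive means mean lysis activity below 80%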
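Assay system: log-phase C. neoformans yeast / Quantity: yeast cell density of 5 × 10^6 cells/mL / Medium: fresh YPD growth medium / Compound: single dose / Timing: static 4 h at 37 °C with compound, 1 h detection / Measured by: adenylate kinase release luminescence / Read-out: lysis from increased AK signal / Benchmarks: Clomiphene as positive lysis control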
miR122 inh: inhibitors of miR-122 in Huh7 cells. Huh7 miR-122 Renilla luciferase sensor, 48 h; neutral wells = 0, positive control = 100. activation (reporter increase), % at 12.5 µM. 0.3% of 340,000 active;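 active means mean replicate activation score at least 90 and every replicate individually at or above 90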;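 further: higher luciferase means less miR-122 activity so hits act as miR-122 inhibitors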
C2C12 statin: suppression of simvastatin myotoxicity. C2C12 myotubes + simvastatin, ATP luminescence, 48 h; scaled: DMSO 0, geranylgeraniol control 100. rescue of ATP level, % at 7.49 µM. 0.78% of 330,000 active. AID 602340;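 active means mean ATP rescue above about 67%, or every replicate alone reaching that limit, limit read from the data, passing the limit was not always enough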;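 further: myotubes were challenged with 10 µM simvastatin during compound exposure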
Yeast UUG start: modulators of start codon recognition fidelity in yeast; AID 602363; activity score, % at 18.7 µM; S. cerevisiae UUG-firefly luciferase reporter, luminescence/redox ratio; 0.13% of 350,000 active;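 active = replicate mean at a twofold rise or more, about +100% in these data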;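 note: firefly luciferase made from a UUG start codon reports start codon fidelity; reporter light over untreated wells divided by growth signal over untreated wells; some hits fall short of that in this replicate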
Large screens that a line does not name were inactive; ! = repeats disagree. Most compounds without a hit are left out; they make up all but 1.2% or so of the library.

COc1ccc(-c2cc(C)no2)cc1S(=O)(=O)NCC(C)c1ccccc1 (centres undefined)	miR122 inh 148.2
Cc1ccc(NS(=O)(=O)c2cc(-c3cc(C)no3)ccc2C(C)C)nc1	miR122 inh 99.1
COc1ccc(OC)c(CNS(=O)(=O)c2cc(-c3cc(C)no3)ccc2OC)c1	none
CCOc1ccccc1CNS(=O)(=O)c1cc(-c2cc(C)no2)ccc1OC	none
COc1ccccc1CNS(=O)(=O)c1cc(-c2cc(C)no2)ccc1C(C)C	miR122 inh 106.9
C/C=C/c1cnc2c(c1)C(=O)N([C@@H](C)CO)C[C@H](C)[C@@H](CN(C)C(=O)Cc1ccccc1)O2	none
CC1(C)Cc2nc3sc4c(OCc5ccccc5)ncnc4c3cc2CO1	C2C12 statin 73.7
CCc1nc(OCc2ccccc2)c2sc3nc4c(cc3c2n1)COC(C)(C)C4	none
CC(=O)N(C)C[C@H]1Oc2ncc(-c3cncnc3)cc2C(=O)N([C@H](C)CO)C[C@H]1C	none
O=C(N[C@H]1CC[C@@H](CC(=O)N2CCc3ccccc3C2)O[C@@H]1CO)C1CCOCC1	none
Cc1c(C)c2ccc(OCC(=O)N(C)C)c(C)c2oc1=O	C2C12 statin 97.9
CCc1c(C)c2ccc(OCC(=O)N(C)C)c(C)c2oc1=O	none
Cc1cc(C)cc(NS(=O)(=O)c2cc(Br)cnc2N)c1	miR122 inh 97.7
CC1CCCC(NS(=O)(=O)c2cc(Br)cnc2N)C1C (centres undefined)	none (no result: miR122 inh)
Cc1ccc(NS(=O)(=O)c2cc(Br)cnc2N)cc1C	miR122 inh 144.2
Nc1ncc(Br)cc1S(=O)(=O)NC1CCCCC1	miR122 inh 126.0
Nc1ncc(Br)cc1S(=O)(=O)NCCc1ccccc1	miR122 inh 105.5
CSc1cccc(NS(=O)(=O)c2cc(Br)cnc2N)c1	miR122 inh 106.0
Cc1[nH]nc2c1C1(C(=O)N(Cc3ccc(Cl)cc3)c3ccccc31)C(C#N)=C(N)O2 (centres undefined)	C2C12 statin 104.9
COC(=O)Cc1[nH]nc2c1C1(C(=O)N(Cc3ccccc3)c3ccccc31)C(C#N)=C(N)O2 (centres undefined)	none
O=C(NCC[C@@H]1CC[C@@H](NC(=O)c2cccnc2)[C@@H](CO)O1)Nc1ccc(Cl)cc1	none (no result: miR122 inh)
O=C(NCC[C@H]1CC[C@@H](NC(=O)C2CCCC2)[C@@H](CO)O1)c1cnccn1	none
O=C(NCc1nc2ccccc2[nH]1)C1=C[C@H](C2CC2)C[C@H](OCc2ccc(CO)cc2)O1	Cneo AK release 80.6!
O=C(NCc1nc2ccccc2[nH]1)C1=C[C@@H](C2CC2)C[C@@H](OCc2ccc(CO)cc2)O1	none
CC(=O)c1ccc(-n2c(-c3cc(-c4ccco4)[nH]n3)n[nH]c2=S)cc1	C2C12 statin 83.7
O=C(O)c1ccc(-n2c(-c3cc(-c4ccco4)[nH]n3)n[nH]c2=S)cc1	none
Cc1c(C(=O)OCC(C)(C)CN(C)C)oc2ccccc12	C2C12 statin 95.5
CNC[C@@H]1Oc2ncc(-c3cccc(F)c3)cc2C(=O)N([C@@H](C)CO)C[C@@H]1C	none
N#C[C@@H]1[C@@H](c2ccc(-c3ccncc3)cc2)[C@@H](CO)N1C(=O)C1CCOCC1	none (no result: miR122 inh)
C[C@@H]1CN([C@@H](C)CO)S(=O)(=O)c2ccc(-c3cccc(C(=O)N(C)C)c3)cc2O[C@@H]1CN(C)C(=O)Cc1ccccn1	none (no result: miR122 inh)
Cc1ccc(C(=O)Nc2ccc3ncccc3c2)cc1	Cneo AK release 129.1 (no result: miR122 inh)
COc1cccc(-n2nnnc2SCC(=O)NCCc2ccccc2)c1	C2C12 statin 101.6
COc1ccc(OC)c(-n2nnnc2SCC(=O)NCCc2ccccc2)c1	none
C[C@H]1CN([C@@H](C)CO)C(=O)c2cc(NS(=O)(=O)c3cccs3)ccc2O[C@@H]1CN(C)S(=O)(=O)c1cccs1	none (no result: Cneo AK release, Yeast UUG start)
C[C@@H]1CCCCO[C@@H](CN(C)Cc2ccc(C(F)(F)F)cc2)[C@@H](C)CN([C@@H](C)CO)C(=O)c2cc(NS(=O)(=O)c3cccs3)ccc2O1	none
COc1ccc(CN(C)C[C@H]2OCCCC[C@@H](C)Oc3ccc(NC(=O)c4ccccc4)cc3C(=O)N([C@H](C)CO)C[C@@H]2C)cc1	Cneo AK release 101.9!
C[C@@H]1CCCCO[C@H](CN(C)Cc2ccc(C(F)(F)F)cc2)[C@H](C)CN([C@@H](C)CO)C(=O)c2cc(NC(=O)c3ccncc3)ccc2O1	C2C12 statin 76.4
C[C@@H]1CCCCO[C@@H](CN(C)Cc2ccncc2)[C@@H](C)CN([C@@H](C)CO)C(=O)c2cc(NC(=O)c3ccncc3)ccc2O1	Cneo AK release 88.9 (no result: C2C12 statin, Yeast UUG start)
C[C@@H]1CN([C@@H](C)CO)C(=O)c2cc(NS(=O)(=O)c3cccs3)ccc2O[C@@H](C)CCCCO[C@@H]1CN(C)Cc1ccc(C(F)(F)F)cc1	C2C12 statin 115.8
C[C@@H]1CCCCO[C@@H](CN(C)Cc2ccc(C(F)(F)F)cc2)[C@H](C)CN([C@H](C)CO)C(=O)c2cc(NC(=O)c3ccncc3)ccc2O1	none
C[C@H]1CCCCO[C@H](CN(C)Cc2ccncc2)[C@@H](C)CN([C@@H](C)CO)C(=O)c2cc(NC(=O)CCCN(C)C)ccc2O1	Cneo AK release 98.3
C[C@H](CO)N1C[C@H](C)[C@@H](CN(C)Cc2ccc(C(F)(F)F)cc2)OCCCC[C@H](C)Oc2ccc(NC(=O)c3ccncc3)cc2C1=O	none
C[C@@H]1CCCCO[C@@H](CN(C)Cc2ccc(C(F)(F)F)cc2)[C@H](C)CN([C@@H](C)CO)C(=O)c2cc(NC(=O)c3ccncc3)ccc2O1	C2C12 statin 120.7
C[C@@H]1CCCCO[C@H](CN(C)C(=O)Nc2ccccc2)[C@H](C)CN([C@H](C)CO)C(=O)c2cc(NC(=O)C3CCCCC3)ccc2O1	none (no result: Cneo AK release, C2C12 statin, Yeast UUG start)
COc1cccc(OCCCCCCN2CCOCC2)c1	C2C12 statin 111.7
CCOc1cccc(OCCCCN2CCOCC2)c1	none
C[C@@H]1CCCCO[C@@H](CN(C)CC2CCCCC2)[C@@H](C)CN([C@H](C)CO)C(=O)c2cc(NS(=O)(=O)c3ccc(F)cc3)ccc2O1	C2C12 statin 96.3
C[C@@H]1CCCCO[C@@H](CN(C)CC2CCCCC2)[C@@H](C)CN([C@@H](C)CO)C(=O)c2cc(NS(=O)(=O)c3ccccc3)ccc2O1	Cneo AK release 80.1
C[C@H]1CCCCO[C@H](CN(C)CC2CCCCC2)[C@@H](C)CN([C@@H](C)CO)C(=O)c2cc(NS(=O)(=O)c3ccccc3)ccc2O1	none
C[C@@H]1CN([C@H](C)CO)C(=O)c2cc(NS(=O)(=O)c3ccc(F)cc3)ccc2O[C@@H](C)CCCCO[C@H]1CN(C)CC1CCCCC1	none
O=C(Cc1ccncc1)N[C@@H]1CC[C@@H](CCn2cc(-c3ccccc3F)nn2)O[C@@H]1CO	none
C[C@@H]1CN([C@@H](C)CO)C(=O)c2cc(-c3ccc(C#N)cc3)cnc2O[C@H]1CN(C)C(=O)Nc1ccc(F)cc1	none
C[C@H]1CN([C@@H](C)CO)S(=O)(=O)c2ccc(Br)cc2O[C@@H]1CN(C)C(=O)CN(C)C	none

Compound activity deposited in PubChem BioAssay by Broad Institute.
